target: human orexin-2 receptor (Homo sapiens (Human), UniProt O43614); assay: Human orexin 2 receptor radioligand binding ([3H]-EMPA competition); conditions: HEK293 cells stably expressing human orexin-2 receptor; [3H]-EMPA 5 nM final; read-out: OR-2 Ki
Experimental: (§1) The in vitro affinity of the compounds for the human orexin-1 and orexin-2 receptors was determined by competitive radioligand binding using [^3H]SB SB674042 (1-(5-(2-fluoro-phenyl)-2-methyl-thiazol-4-yl)-1-((S)-2-(5-phenyl-(1,3,4)oxadiazol-2-ylmethyl)-pyrrolidin-1-yl)methanone) (Langmead et al., British Journal of Pharmacology 2004, 141:340-346.) and [^3H]EMPA (N-ethyl-2[(6-methoxy-pyridin-3-yl)-(toluene-2-sulfonyl)-amino]-N-pyridin-3-ylmethyl acetamide) (Malherbe et al., British Journal of Pharmacology, 2009, 156(8), 1326-1341), respectively.
Human Orexin 2 Receptor Radioligand Binding Studies
HEK293 stably expressing human orexin-2 receptor (Genebank accession number NM_001526) were grown to confluency in DMEM/F12 (Gibco, Cat #11039), in DMEM, 10% FBS, 1× Pen/Strep, 1× NaPyruvate, 1×HEPES, 600 ug/ml G418 media on 150 cm^2 tissue culture plates, washed with 5 mM EDTA in PBS (HyClone Dulbecco's Phosphate Buffered Saline 1× with Calcium and Magnesium, Cat #SH30264.01, hereafter referred to simply as PBS) and scraped into 50 ml tubes. After centrifugation (2K xG, 10 min at 4° C.), the supernatant was aspirated and the pellets frozen and stored at −80° C. Cells were resuspended in PBS in the presence of 1 tablet of protease inhibitor cocktail (Roche, Cat. #11836145001) per 50 mL. […] Competition binding experiments in 96 well polypropylene plates were performed using [^3H]-EMPA (Moravek Corporation, specific activity=27 Ci/mmol), diluted to a […] concentration in PBS (5 nM final concentration). Compounds were solubilized in 100% DMSO (Acros Organics, Cat. #61042-1000) and tested over a range of 7 concentrations (from 0.1 nM to 10 μM). The final concentration of DMSO in the reactions is equal to or less than 0.1%. Total and nonspecific binding was determined in the absence and presence of 10 μM (N-[2-(3,4-dimethoxyphenyl)ethyl]-N-methylnaphthalene-1-carboxamide, CAS Registry #1089563-88-1). The total volume of each reaction is 200 μL (20 μL of diluted compounds, 80 μL of [^3H]-EMPA diluted in PBS and 100 μL of the cell suspension). Reactions were run for 60 min at room temperature and terminated by filtration through GF/C filter plates (PerkinElmer, Cat. #6005174) presoaked in 0.3% polyethylenimine using the cell harvester (Perkin Elmer Filtermate). The plates were washed 3 times by aspirating 30 ml PBS through the plates. Plates were dried in 55° C. oven for 60 min, scintillation fluid was added, and the radioactivity was counted on a Topcount (Packard).

Chains of the proteins cited; added tags and fusions are not shown.
UniProt O43614, whole entry: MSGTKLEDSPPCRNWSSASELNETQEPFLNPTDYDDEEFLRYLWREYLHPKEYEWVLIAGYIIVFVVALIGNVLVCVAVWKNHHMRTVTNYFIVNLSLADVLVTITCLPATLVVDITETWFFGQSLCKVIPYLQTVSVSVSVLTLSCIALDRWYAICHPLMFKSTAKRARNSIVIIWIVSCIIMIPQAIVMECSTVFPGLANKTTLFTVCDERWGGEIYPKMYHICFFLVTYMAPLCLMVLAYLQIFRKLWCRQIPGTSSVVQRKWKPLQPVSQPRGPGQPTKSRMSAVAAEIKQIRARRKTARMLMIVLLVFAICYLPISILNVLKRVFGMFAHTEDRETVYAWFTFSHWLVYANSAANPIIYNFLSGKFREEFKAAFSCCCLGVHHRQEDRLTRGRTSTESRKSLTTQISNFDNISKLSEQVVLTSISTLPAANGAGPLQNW
UniProt O43613, whole entry: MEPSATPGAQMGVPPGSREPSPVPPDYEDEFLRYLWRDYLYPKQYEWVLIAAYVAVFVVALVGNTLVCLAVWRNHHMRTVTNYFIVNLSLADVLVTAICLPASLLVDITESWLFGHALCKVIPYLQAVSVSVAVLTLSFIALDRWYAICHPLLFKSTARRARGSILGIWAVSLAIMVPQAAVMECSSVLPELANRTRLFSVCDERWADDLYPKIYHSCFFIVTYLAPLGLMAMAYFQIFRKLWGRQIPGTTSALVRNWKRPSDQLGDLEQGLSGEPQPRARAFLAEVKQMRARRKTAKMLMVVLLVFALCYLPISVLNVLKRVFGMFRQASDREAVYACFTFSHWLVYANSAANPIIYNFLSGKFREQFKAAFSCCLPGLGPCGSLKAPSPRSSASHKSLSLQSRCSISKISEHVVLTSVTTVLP

| Compound | Ki [µM] |
| --- | --- |
| Cc1cc(C)nc(N2C[C@@H]3CCN(C(=O)c4ccccc4-n4nccn4)C[C@@H]32)n1 [Example 25, (1R,6S)-[8-(4,6-Dimethyl-pyrimidin-2-yl)-3,8-diaza-bicyclo[4.2.0]oct-3-yl]-(2-[1,2,3]triazol-2-yl-phenyl)-methanone] | 0.015 |
| Cc1cc(C)nc(N2C[C@@H]3CCN(C(=O)c4cc(F)ccc4-n4nccn4)C[C@@H]32)n1 [Example 41, (1R,6S)-[8-(4,6-Dimethyl-pyrimidin-2-yl)-3,8-diaza-bicyclo[4.2.0]oct-3-yl]-(5-fluoro-2-[1,2,3]triazol-2-yl-phenyl)-methanone] | 0.012 |

Other lines, results leading:

| Ki [µM] | Compound |
| --- | --- |
| 10 | Cc1nccnc1N1C[C@@H]2CCN(C(=O)c3cc(F)ccc3-n3nccn3)C[C@@H]21 [Example 107, (1R,6S)-3-{[5-Fluoro-2-(2H-1,2,3-triazol-2-yl)phenyl]carbonyl}-8-(3-methylpyrazin-2-yl)-3,8-diazabicyclo[4.2.0]octane] |
| 0.119 | Cc1cc(N2C[C@@H]3CCN(C(=O)c4ccc(F)cc4-n4nccn4)C[C@@H]32)nc(N(C)C)n1 [Example 45, (1R,6S)-[8-(2-Dimethylamino-6-methyl-pyrimidin-4-yl)-3,8-diaza-bicyclo[4.2.0]oct-3-yl]-(4-fluoro-2-[1,2,3]triazol-2-yl-phenyl)-methanone] |

target: human orexin 1 receptor (Homo sapiens (Human), UniProt O43613); assay: Human orexin 1 receptor radioligand binding ([3H]-SB674042 competition); conditions: CHO cells stably expressing human orexin 1 receptor; [3H]-SB674042 4 nM final; read-out: OR-1 Ki
Experimental: as §1
Human Orexin 1 Receptor Radioligand Binding Studies
Chinese ovary cells (CHO) stably expressing human orexin 1 receptor (Genebank accession number NM_001526) were grown to confluency in DMEM/F12 (Gibco, Cat #11039), 10% FBS, 1× Pen/Strep, 600 μg/mL G418 media on 150 cm^2 tissue culture plates, washed with 5 mM EDTA in PBS (HyClone Dulbecco's Phoshpate Buffered Saline 1× with Calcium and Magnesium, Cat #SH30264.01, hereafter referred to simply as PBS) and scraped into 50 ml tubes. After centrifugation (2K xG, 10 min at 4° C.), the supernatant was aspirated and the pellets frozen and stored at −80° C. Cells were resuspended in PBS in the presence of 1 tablet of protease inhibitor cocktail (Roche, Cat. #11836145001) per 50 mL. […] Compounds were solubilized in 100% DMSO (Acros Organics, Cat. #61042-1000) and tested over a range of 7 concentrations (from 0.1 nM to 10 μM). The final concentration of DMSO in the reactions is equal to or less than 0.1%. Total and nonspecific binding was determined in the absence and presence of 10 μM (1-(6,8-difluoro-2-methylquinolin-4-yl)-3-[4-(dimethylamino)phenyl]urea, CAS Registry #288150-92-5). The total volume of each reaction is 200 μL (20 μL of diluted compounds, 80 μL of [^3H]-SB674042 diluted in PBS and 100 μL of the cell suspension). Reactions were run for 60 min at room temperature and terminated by filtration through GF/C filter plates (PerkinElmer, Cat. #6005174) presoaked in 0.3% polyethylenimine using the cell harvester (PerkinElmer Filtermate). The plates were washed 3 times by aspirating 30 ml PBS through the plates. Plates were dried in 55° C. oven for 60 min, scintillation fluid was added, and the radioactivity was counted on a Topcount (Packard).

| Ki [µM] | Compound |
| --- | --- |
| 0.4 | Cc1cc(N2C[C@@H]3CCN(C(=O)c4cc(F)ccc4-n4nccn4)C[C@@H]32)nc(C(F)(F)F)n1 [Example 42, (1R,6S)-(5-Fluoro-2-[1,2,3]triazol-2-yl-phenyl)-[8-(6-methyl-2-trifluoromethyl-pyrimidin-4-yl)-3,8-diaza-bicyclo[4.2.0]oct-3-yl]-methanone] |
| 0.047 | O=C(c1cc(F)ccc1-c1ncccn1)N1CC[C@H]2CN(c3cnc4ccccc4n3)[C@H]2C1 [Example 33, (1R,6S)(5-Fluoro-2-pyrimidin-2-yl-phenyl)-(8-quinoxalin-2-yl-3,8-diaza-bicyclo[4.2.0]oct-3-yl)-methanone] |
| 0.008 | O=C(c1ccccc1-c1cccs1)N1CC[C@H]2CN(c3cnc4ccccc4n3)[C@H]2C1 [Example 4, (1R,6S)(8-Quinoxalin-2-yl-3,8-diaza-bicyclo[4.2.0]oct-3-yl)-(2-thiophen-2-yl-phenyl)-methanone] |
| 10 | Cc1nccnc1N1C[C@@H]2CCN(C(=O)c3cccc(F)c3-n3nccn3)C[C@@H]21 [Example 109, (1R,6S)-3-{[3-Fluoro-2-(2H-1,2,3-triazol-2-yl)phenyl]carbonyl}-8-(3-methylpyrazin-2-yl)-3,8-diazabicyclo[4.2.0]octane] |
| 0.044 | CCOc1ccc2ccccc2c1C(=O)N1CC[C@H]2CN(c3nc(C)cc(C)n3)[C@H]2C1 [Example 24, (1R,6S)[8-(4,6-Dimethyl-pyrimidin-2-yl)-3,8-diaza-bicyclo[4.2.0]oct-3-yl]-(2-ethoxy-naphthalen-1-yl)-methanone] |
| 0.061 | Cc1cc(C)nc(N2C[C@@H]3CCN(C(=O)c4ccccc4-c4ccco4)C[C@@H]32)n1 [Example 2, (1R,6S)[8-(4,6-Dimethyl-pyrimidin-2-yl)-3,8-diaza-bicyclo[4.2.0]oct-3-yl]-(2-furan-2-yl-phenyl)-methanone] |
